Measured values from BindingDB's records for doi:10.7270/Q2X34VWJ (Nmmlsc, 2009).

By UniProt entry, the sequences of proteins in these tests, tags left out.
UniProt P18067, whole entry: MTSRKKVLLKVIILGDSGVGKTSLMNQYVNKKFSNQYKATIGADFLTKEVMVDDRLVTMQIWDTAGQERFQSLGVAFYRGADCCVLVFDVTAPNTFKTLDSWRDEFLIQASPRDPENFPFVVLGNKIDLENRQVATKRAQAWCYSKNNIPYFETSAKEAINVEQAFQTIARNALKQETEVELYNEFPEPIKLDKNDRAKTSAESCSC

Molecular target: Ras-related protein Rab-7a (Canis lupus familiaris, UniProt P18067)
Assay: extra analogs blocking nucleotide binding to Rab7 – biochemical, additional analogs, wildtype, multiplex bead flow cytometry, SAR follow-up (AID 2036)

EC50 [µM]	SMILES
30	COc1ccc2cc([C@H](C)C(=O)O)ccc2c1 [UNM-0000306098]
1.33	COc1ccc2cc([C@@H](C)C(=O)O)ccc2c1 [sodium;(2R)-2-(6-methoxy-2-naphthalenyl)propanoate]
